Counter-ions that a name gives are not always drawn.
Biological target: T1, hPXR (Homo sapiens, UniProt O75469)
T1 sequence (O75469 1-434): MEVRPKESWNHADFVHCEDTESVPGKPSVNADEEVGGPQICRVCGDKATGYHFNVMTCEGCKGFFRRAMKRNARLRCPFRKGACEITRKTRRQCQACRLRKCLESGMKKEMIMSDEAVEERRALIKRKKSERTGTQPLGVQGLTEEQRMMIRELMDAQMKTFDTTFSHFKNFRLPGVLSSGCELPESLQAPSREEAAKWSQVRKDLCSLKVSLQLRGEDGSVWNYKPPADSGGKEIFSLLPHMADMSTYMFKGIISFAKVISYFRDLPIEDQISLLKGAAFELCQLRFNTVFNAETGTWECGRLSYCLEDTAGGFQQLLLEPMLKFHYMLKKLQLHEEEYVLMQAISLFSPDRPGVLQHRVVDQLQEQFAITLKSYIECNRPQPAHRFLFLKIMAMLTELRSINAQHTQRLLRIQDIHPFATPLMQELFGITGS
Settings: follow-up (cherry-pick confirmation), hPXR-Luc HepG2, 24 h; relative to positive control RIF

Row | SMILES | PXR Follow-up Efficacy [%]
1 | CCN1C(=O)c2ccccc2C1Nc1ccc(OCCN2CCCCC2)cc1 (stereo not drawn) [Etomidoline] | 142 ± 19.4
2 | CCOc1cc(N)c(Cl)cc1C(=O)NCC1CN(Cc2ccc(F)cc2)CCO1 (stereo not drawn) [Mosapride citrate] | 138 ± 9.00
3 | Cc1oc2c(NC(=O)c3c(Cl)cccc3Cl)cccc2c1C(C)(C)O [FR167356] | 145 ± 9.86
4 | CC(C)C[C@H](NC(=O)[C@H](CCc1ccccc1)NC(=O)CN1CCOCC1)C(=O)N[C@@H](Cc1ccccc1)C(=O)N[C@@H](CC(C)C)C(=O)[C@@]1(C)CO1 [Carfilzomib] | 108 ± 23.9

Next, values leading:

Row | PXR Follow-up Efficacy [%] | SMILES
5 | 113 ± 7.13 | Cc1cccc(N(C)C(=S)Oc2ccc3c(c2)CCC3)c1 [Tolindate]
6 | 106 ± 9.09 | O[C@@H](COc1cccc2ncccc12)CN1CCN([C@@H]2c3ccccc3[C@@H]3[C@H](c4ccccc42)C3(F)F)CC1 [Zosuquidar trihydrochloride]
